pKi: −log10 of the molar value. Read-outs that look alike come from different tables or passages of the source.
Legend:
[1] = target: T1, human H3 receptor (Homo sapiens, UniProt Q9Y5N1); test: Cyclic AMP accumulation (β-galactosidase reporter, Schild analysis); type: cell-based; settings: histamine agonist, forskolin 5 μM, Schild regression of pEC50 values
T1 construct: expressed in transfected cells
Description: Sublines of SK-N-MC cells were created that expressed a reporter construct and the human H3 receptor. The reporter gene (β-galactosidase) is under the control of multiple cyclic AMP responsive elements. In 96-well plates, histamine was added directly to the cell media followed 5 min later by an addition of forskolin (5 μM final concentration). When appropriate, antagonists were added 10 min prior to agonist addition. After a 6-h incubation at 37° C., the media was aspirated and the cells washed with 200 μL of phosphate-buffered saline followed by a second aspiration. Cells were lysed with 25 μL 0.1× assay buffer (10 mM Na-phosphate, pH 8, 0.2 mM MgSO4, 0.01 mM MnCl2) and incubated at rt for 10 min. Cells were then incubated for 10 min with 100 μL of 1× assay buffer containing 0.5% Triton and 40 mM β-mercaptoethanol. Color was developed using 25 μL of 1 mg/mL substrate solution (chlorophenolred β-D galactopyranoside; Roche Molecular Biochemicals, Indianapolis, In.).

The chains behind the UniProt entries cited, without tags or fusion partners. Where a name states a change or a piece, a line headed by the entry shows the natural chain unless it says otherwise.
UniProt Q9Y5N1: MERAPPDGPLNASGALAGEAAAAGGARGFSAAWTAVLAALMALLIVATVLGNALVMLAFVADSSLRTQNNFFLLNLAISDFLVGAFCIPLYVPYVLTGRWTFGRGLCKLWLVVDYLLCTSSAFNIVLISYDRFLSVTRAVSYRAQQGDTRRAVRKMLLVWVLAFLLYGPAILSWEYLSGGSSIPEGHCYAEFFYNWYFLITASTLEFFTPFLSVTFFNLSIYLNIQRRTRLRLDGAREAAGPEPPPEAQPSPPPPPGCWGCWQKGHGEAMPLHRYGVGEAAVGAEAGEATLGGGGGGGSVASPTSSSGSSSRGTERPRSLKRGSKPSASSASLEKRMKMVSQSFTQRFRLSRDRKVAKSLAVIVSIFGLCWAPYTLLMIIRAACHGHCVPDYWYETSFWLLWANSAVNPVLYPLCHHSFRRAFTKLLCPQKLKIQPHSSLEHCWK
UniProt P31652, whole entry: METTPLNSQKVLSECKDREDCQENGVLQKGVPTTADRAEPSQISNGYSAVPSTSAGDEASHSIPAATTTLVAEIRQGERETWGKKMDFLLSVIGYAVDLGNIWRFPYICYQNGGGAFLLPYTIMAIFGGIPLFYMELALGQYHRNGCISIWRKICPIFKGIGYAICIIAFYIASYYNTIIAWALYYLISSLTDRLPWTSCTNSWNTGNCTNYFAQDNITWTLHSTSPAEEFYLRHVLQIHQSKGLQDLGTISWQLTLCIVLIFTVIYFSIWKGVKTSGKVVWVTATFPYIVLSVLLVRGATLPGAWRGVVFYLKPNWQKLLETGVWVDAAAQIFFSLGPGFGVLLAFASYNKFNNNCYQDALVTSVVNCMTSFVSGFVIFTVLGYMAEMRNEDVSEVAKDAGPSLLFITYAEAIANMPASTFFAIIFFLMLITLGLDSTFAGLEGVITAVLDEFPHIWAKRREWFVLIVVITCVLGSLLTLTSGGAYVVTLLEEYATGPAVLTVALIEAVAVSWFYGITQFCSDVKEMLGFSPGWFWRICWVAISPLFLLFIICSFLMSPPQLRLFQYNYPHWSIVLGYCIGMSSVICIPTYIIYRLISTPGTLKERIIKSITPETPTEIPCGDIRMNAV

[2] = target: T1, human H3 receptor; test: H3 receptor binding (N-[3H]-α-methylhistamine displacement); settings: membranes of SK-N-MC cells expressing cloned human H3 receptor, 0.8 nM N-[3H]-α-methylhistamine, 60 min at 25° C.
Description: Briefly, cell pellets from SK-N-MC cells expressing the human H3 receptor were homogenized in 50 mM Tris-HCl/5 mM EDTA and re-centrifuged at 30,000 g for 30 min. Pellets were re-homogenized in 50 mM Tris/6 mM EDTA (pH 7.4). Membranes were incubated with 0.8 nM N-[^3H]-α-methylhistamine plus/minus test compounds for 60 min at 25° C. and harvested by rapid filtration over GF/C glass fiber filters (pretreated with 0.3% polyethylenimine) followed by four washes with ice-cold buffer. Nonspecific binding was defined in the presence of 10 μM histamine.

[3] = target: T2, Rat SERT (Rattus norvegicus, UniProt P31652); test: Rat brain SERT binding ([3H]-citalopram displacement); settings: rat brain membranes without cerebellum, 0.6 nM [3H]-citalopram, 60 min at 25° C.
T2 construct: A rat brain without cerebellum (Zivic Laboratories, Inc.—Pittsburgh, Pa.) was homogenized; tissue Zivic Laboratories, Inc; host or cells: rat brain without cerebellum, membranes
Description: The supernatant was removed and re-centrifuged at 15,000 rpm for 30 min. […] Membranes were incubated with 0.6 nM [^3H]-Citalopram plus/minus test compounds for 60 min at 25° C. and harvested by rapid filtration over GF/C glass fiber filters (pretreated with 0.3% polyethylenimine) followed by four washes with ice-cold buffer.

[4] = SK-N-MC cells expressing human H3 receptor and CRE-β-galactosidase reporter, read-out: pA2 (converted)

SMILES	Kb [1, 4]	pKi [2]	pKi [3]	also measured
COc1ccc(C2CN(C)Cc3cc(OCCCN4CCC(F)CC4)ccc32)cc1 (single isomer, unassigned) [Example 1B, 7-[3-(4-Fluoro-piperidin-1-yl)-propoxy]-4-(4-methoxy-phenyl)-2-methyl-1,2,3,4-tetrahydro-isoquinoline]	1.26 nM			
COc1ccc(C2CN(C)Cc3cc(OCCCN4CCC(F)CC4)ccc32)cc1 (racemic) [Example 1, 7-[3-(4-Fluoro-piperidin-1-yl)-propoxy]-4-(4-methoxy-phenyl)-2-methyl-1,2,3,4-tetrahydro-isoquinoline]	2.51 nM	8.70		
CN1Cc2cc(OCCCN3CCC(F)CC3)ccc2C(c2ccc(S(C)(=O)=O)cc2)C1 (stereo not shown) [Example 51, 7-[3-(4-Fluoro-piperidin-1-yl)-propoxy]-4-(4-methanesulfonyl-phenyl)-2-methyl-1,2,3,4-tetrahydro-isoquinoline]		8.70		Kb ([1]; pA2, SK-N-MC cells expressing human H3 receptor and CRE-β-galactosidase reporter): 0.501 nM
COc1ccc(C2CN(C)Cc3cc(OCCCN4CCCCC4)ccc32)cc1 (racemic) [Example 61, 4-(4-Methoxy-phenyl)-2-methyl-7-(3-piperidin-1-yl-propoxy)-1,2,3,4-tetrahydro-isoquinoline]			8.40	
COc1ccc(C2CN(C)Cc3cc(OCCCN4CCC(F)CC4)ccc32)cc1 (single isomer, unassigned) [Example 1A, 7-[3-(4-Fluoro-piperidin-1-yl)-propoxy]-4-(4-methoxy-phenyl)-2-methyl-1,2,3,4-tetrahydro-isoquinoline]	3.98 nM	8.70		
COc1ccc(C2CN(C)Cc3cc(OCCCN4CCCC(F)(F)C4)ccc32)cc1 (single isomer, unassigned) [Example 29A, 7-[3-(3,3-Difluoro-piperidin-1-yl)-propoxy]-4-(4-methoxy-phenyl)-2-methyl-1,2,3,4-tetrahydro-isoquinoline]		7.46		
COc1ccc(C2CN(C)Cc3cc(OCCCN4CCCCC4)ccc32)cc1 (single isomer, unassigned) [Example 63, 4-(4-Methoxy-phenyl)-2-methyl-7-(3-piperidin-1-yl-propoxy)-1,2,3,4-tetrahydro-isoquinoline]			9.00	
COc1ccc(C2CN(C)Cc3cc(OCCCN4CCCC(F)(F)C4)ccc32)cc1 (racemic) [Example 29, 7-[3-(3,3-Difluoro-piperidin-1-yl)-propoxy]-4-(4-methoxy-phenyl)-2-methyl-1,2,3,4-tetrahydro-isoquinoline]		8.15		
COc1ccc(C2CN(C)Cc3cc(OCCCN4CCCC(F)(F)C4)ccc32)cc1 (single isomer, unassigned) [Example 29B, 7-[3-(3,3-Difluoro-piperidin-1-yl)-propoxy]-4-(4-methoxy-phenyl)-2-methyl-1,2,3,4-tetrahydro-isoquinoline]		7.89		
COc1ccc(C2CN(C)Cc3cc(OCCCN4CCCCC4)ccc32)cc1 (single isomer, unassigned) [Example 62, 4-(4-Methoxy-phenyl)-2-methyl-7-(3-piperidin-1-yl-propoxy)-1,2,3,4-tetrahydro-isoquinoline]			8.00	

Source: US20060194837A1, “Tetrahydroisoquinoline compounds” (priority 2004, published 2006)
